Molecular target: T1, Integrin alpha-3 (Homo sapiens, UniProt P26006)
T1 sequence (P26006 whole entry): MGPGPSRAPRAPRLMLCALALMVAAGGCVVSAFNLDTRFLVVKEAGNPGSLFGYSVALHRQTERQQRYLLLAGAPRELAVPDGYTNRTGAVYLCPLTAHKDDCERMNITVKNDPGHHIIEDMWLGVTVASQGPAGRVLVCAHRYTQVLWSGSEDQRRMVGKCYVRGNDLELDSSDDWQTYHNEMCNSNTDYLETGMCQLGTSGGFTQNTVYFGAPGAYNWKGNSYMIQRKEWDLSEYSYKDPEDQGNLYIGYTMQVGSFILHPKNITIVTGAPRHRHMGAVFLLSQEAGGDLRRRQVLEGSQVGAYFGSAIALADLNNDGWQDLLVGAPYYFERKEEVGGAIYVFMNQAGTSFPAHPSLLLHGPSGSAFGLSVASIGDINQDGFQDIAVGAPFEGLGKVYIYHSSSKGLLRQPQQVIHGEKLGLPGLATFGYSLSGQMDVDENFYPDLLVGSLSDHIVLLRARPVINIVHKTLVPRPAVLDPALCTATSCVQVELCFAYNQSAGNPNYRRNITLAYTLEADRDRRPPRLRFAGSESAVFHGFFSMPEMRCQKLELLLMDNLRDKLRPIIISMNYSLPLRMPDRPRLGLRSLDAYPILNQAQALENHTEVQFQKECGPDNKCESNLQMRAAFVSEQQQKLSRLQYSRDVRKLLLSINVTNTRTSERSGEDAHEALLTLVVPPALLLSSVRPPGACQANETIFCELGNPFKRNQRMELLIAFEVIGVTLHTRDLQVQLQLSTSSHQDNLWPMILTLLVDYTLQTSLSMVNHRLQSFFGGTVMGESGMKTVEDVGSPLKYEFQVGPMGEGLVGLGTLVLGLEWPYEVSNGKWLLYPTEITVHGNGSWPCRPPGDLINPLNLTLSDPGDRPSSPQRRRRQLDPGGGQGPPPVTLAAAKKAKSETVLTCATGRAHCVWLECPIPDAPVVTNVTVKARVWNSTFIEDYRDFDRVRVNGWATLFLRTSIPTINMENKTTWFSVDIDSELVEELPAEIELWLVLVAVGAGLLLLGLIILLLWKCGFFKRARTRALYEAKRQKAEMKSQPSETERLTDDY
Test: Binding affinity to integrin alpha3beta1 expressed in human MDA-MB-231 cells by flow cytometry
Type: cell-based

- Kd: 400 nM
Structure (SMILES): CC(C)C[C@@H]1NC(=O)CNC(=O)[C@@H](CC(=O)O)NC(=O)[C@H](N)CSSC[C@H](C(N)=O)NC(=O)[C@H](CC(N)=O)NC(=O)[C@@H]2C[C@@H](O)CN2C(=O)CNC1=O
